One compound from ChEMBL document CHEMBL1151699, “Synthesis and biological evaluation of guanylhydrazone coactivator binding inhibitors for the estrogen receptor” (Bioorg Med Chem, 2008) can be followed below.

This experiment concerns the target Envelope glycoprotein gp160 (Human immunodeficiency virus type 1 group M subtype B (isolateBRU/LAI) (HIV-1)) (UniProt P03377). Put plainly: Displacement of [3H]estradiol from human estrogen receptor alpha/estrogen receptor beta relative to estradiol.

`N=C(N)N/N=C/C1=C(Cl)c2ccccc2CC1` yielded an RBA of 0.004%.
